# Columns and labels:
# Protein sequences, listed by entry. Tags and fused reporters are not part of them.
# UniProt P42336, whole entry, looked up: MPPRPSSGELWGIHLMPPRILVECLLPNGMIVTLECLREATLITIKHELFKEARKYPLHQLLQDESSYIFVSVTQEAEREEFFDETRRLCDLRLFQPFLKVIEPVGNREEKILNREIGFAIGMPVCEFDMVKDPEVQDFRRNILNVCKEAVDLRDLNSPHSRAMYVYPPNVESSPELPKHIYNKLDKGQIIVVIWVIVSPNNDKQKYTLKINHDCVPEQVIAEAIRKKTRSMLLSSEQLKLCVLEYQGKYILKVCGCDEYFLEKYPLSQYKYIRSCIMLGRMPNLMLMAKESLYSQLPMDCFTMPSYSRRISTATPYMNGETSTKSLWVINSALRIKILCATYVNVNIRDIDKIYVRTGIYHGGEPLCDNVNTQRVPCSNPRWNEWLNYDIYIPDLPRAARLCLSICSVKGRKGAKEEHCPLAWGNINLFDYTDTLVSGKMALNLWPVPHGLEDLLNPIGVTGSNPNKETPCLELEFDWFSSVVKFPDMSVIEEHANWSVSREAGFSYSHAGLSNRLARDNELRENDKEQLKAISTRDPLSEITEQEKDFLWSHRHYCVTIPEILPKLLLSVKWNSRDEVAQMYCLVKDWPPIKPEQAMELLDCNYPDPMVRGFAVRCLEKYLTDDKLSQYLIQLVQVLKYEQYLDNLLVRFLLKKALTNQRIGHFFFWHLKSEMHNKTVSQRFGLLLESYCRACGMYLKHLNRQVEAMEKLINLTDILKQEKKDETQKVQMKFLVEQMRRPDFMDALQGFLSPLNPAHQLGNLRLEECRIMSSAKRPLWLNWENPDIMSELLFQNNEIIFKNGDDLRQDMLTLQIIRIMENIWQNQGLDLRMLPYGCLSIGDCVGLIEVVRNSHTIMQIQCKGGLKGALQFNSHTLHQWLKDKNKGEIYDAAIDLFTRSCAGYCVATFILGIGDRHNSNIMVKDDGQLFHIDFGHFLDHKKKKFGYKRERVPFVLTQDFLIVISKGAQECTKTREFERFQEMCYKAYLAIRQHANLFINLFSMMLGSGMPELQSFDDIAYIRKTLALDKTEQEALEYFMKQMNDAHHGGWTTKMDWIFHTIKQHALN
# PI3Kα [1] = biological target: T1, PI3Kα (Homo sapiens (Human), UniProt P42336); test: PI3K inhibition assay (PI3 Kinase activity/inhibitor assay kit), PI3Kα; format: biochemical; settings: read-out: IC50 against PI3Kα
# Protocol: PI3K inhibition assay (PI3K Assay (Emmanuelle M, Huang […] et al. Targeting Protein Translation in Human Non-Small Cell Lung Cancer via Combined MEK and Mammalian Target of Rapamycin Suppression. Cancer Res 67:(23). (2007).) was carried out by PI3 Kinase activity/inhibitor assay kit, where PI3 kinase reaction was set up in Glutathione-coated strips/plate for inhibitor reaction. Kinase and inhibitors were pre-incubated for 10 minutes prior to the addition of PIP2 substrate. 5 μL of 5× kinase reaction buffer were added in each well followed by the further addition of 5 μL/well of PIP2 substrate. Then distilled H2O was added to each well so as to make up a final volume of 25 μL/well. Incubation was done at rt for 1 hour which was followed by washing the wells 3 times with 200 μL of 1×TBST per well and then 2 times with 200 μL of IX TBS per well. Then 100 μL of the Substrate TMB per well was added and then to keep for colour development in the dark for 5-20 minutes. However, appearance of the blue color to avoid over-development were monitored. 100 μL of the stop solution per well was used to stop the reaction. Readings were recorded at 450 nm. The IC50 value of a drug measures the effectiveness of a compound in inhibiting biological or biochemical function. […]
# PI3Kα [2] = biological target: T1, PI3Kα; settings: literature; cited from earlier work
substance,measurement,setting,value
Liphagal,IC50,PI3Kα [1],108 nM
same,potency against PI3K-α relative to PI3K-γ,PI3Kα [2],~10 fold

# Reference: patent US9206201B2, “Boronic acid bearing liphagane compounds as inhibitors of P13K-α and/or β” (COUNCIL OF SCIENTIFIC & INDUSTRIAL RESEARCH, priority 2012, dated 2015)
